Several values for one entry are separate records, joined by “and”; a condition that tells them apart may be missing. Equal values may be shown once.
Legend:
Wild-type KOR = Wild-type KOR (Homo sapiens, UniProt P41145); assay: Ligand binding to wild-type KOR expressed in COS-7 and CHO-KI cells
OR2 [1] = assay: Ligand binding to the RASSL OR2 expressed in COS-7 and CHO-KI cells; design: species or system human
OR2 [2] = target: OR2 (Homo sapiens, UniProt P41145, G198V/DELINS201-226PRDGAVVCMLQFPSPSWYWDTVT/E297Q, form not given); assay: as above; conditions: read-out: Ki, OR2 (unit inferred); spiradoline binding
control mice = assay: EKG after spiradoline injection in control mice (littermate with only the MHCα-tTA transgene); conditions: control mice following spiradoline injection
OR1-expressing mice = assay: EKG after spiradoline injection in OR1-expressing double transgenic mice; conditions: 2 mg intraperitoneally
[3] = test system: OR2-expressing rat 1a fibroblasts
OR1 [4] = assay: Ligand binding to the RASSL OR1 expressed in COS-7 and CHO-KI cells; design: species or system human
OR1 [5] = target: OR1 (Homo sapiens, UniProt P41145, G198V/DELINS201-226PRDGAVVCMLQFPSPSWYWDTVT, form not given); assay: as above; conditions: read-out: Ki, OR1 (unit inferred); spiradoline binding
[6] = relative to binding to wild-type KOR

Protein sequences, listed by entry. Tags and fused reporters are not part of them. Lines headed by an entry give the natural chain unless they say otherwise; changes in a name come on top.
UniProt P41145: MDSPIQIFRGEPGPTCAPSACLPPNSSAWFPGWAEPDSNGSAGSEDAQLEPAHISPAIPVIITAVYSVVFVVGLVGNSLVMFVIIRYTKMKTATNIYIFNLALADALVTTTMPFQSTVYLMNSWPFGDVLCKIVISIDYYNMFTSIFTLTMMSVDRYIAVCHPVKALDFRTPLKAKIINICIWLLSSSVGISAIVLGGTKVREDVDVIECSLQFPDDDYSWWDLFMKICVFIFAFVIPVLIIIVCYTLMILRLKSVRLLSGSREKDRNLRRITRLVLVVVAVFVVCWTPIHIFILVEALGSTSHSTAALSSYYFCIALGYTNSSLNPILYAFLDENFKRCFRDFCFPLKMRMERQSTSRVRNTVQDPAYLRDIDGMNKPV

## CN(C(=O)Cc1ccc(Cl)c(Cl)c1)C1CCC2(CCCO2)CC1N1CCCC1 (stereo not shown)
Wild-type KOR; read-out: Ki, human KOR (unit inferred), spiradoline binding
  Ki: 1.13 nM and 1.32 nM
Wild-type KOR; [6]
  Fold decrease in binding, Wild-type KOR: 1 fold
OR2 [1]; OR2 versus native human KOR
  Change in binding affinity of OR2 relative to native human KOR: relatively small change
OR2 [1]; [6]
  Fold decrease in binding, OR2: 4.3 fold
OR2 [2]
  Ki: 5.65 nM
Control mice
  Atrioventricular block or other changes in EKG wave form: not observed
OR1-expressing mice; more apparent in the 5-minute recordings
  Conduction on EKG after injection: apparent conduction defect consistent with atrioventricular heart block
OR1-expressing mice; recordings a few seconds after injection, anesthetized double transgenic mice
  Heart rate on EKG after injection: markedly decreased heart rate
[3]; OR2-expressing rat 1a fibroblasts, 3H-thymidine incorporation
  Increase in cell proliferation over exposure to the selected natural ligand dynorphin: 20-50 fold
[3]; summary table, ↓ = decrease versus wild-type KOR
  Growth Signal, decrease (summary), OR2: NC
OR1 [4]; OR1 versus native human KOR
  Change in binding affinity of OR1 relative to native human KOR: relatively small change
OR1 [4]; [6]
  Fold decrease in binding, OR1: 4.8 fold
OR1 [5]
  Ki: 6.29 nM
